The numbers were not newly measured in US10877035B2, “Advanced drug development and manufacturing” (ICAGEN, LLC, priority 2006, dated 2020), which cites them from elsewhere.

Protein sequences, listed by entry. Tags and fused reporters are not part of them. Residues count along the entry.
UniProt Q01693, 107-405 limits assumed: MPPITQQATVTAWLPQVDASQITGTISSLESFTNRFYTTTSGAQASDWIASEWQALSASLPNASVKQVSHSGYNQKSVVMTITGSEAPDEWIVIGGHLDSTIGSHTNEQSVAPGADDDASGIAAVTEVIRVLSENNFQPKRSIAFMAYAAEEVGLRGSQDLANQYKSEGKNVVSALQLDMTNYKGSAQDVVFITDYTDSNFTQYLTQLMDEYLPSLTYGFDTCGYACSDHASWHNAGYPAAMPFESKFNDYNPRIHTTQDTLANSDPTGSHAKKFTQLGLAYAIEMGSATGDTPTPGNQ

In the data set the target is di-zinc aminopeptidase (aAP) (Vibrio proteolyticus, UniProt Q01693). The settings on record: pH 8.0, competitive inhibitor; cited from earlier work.

With leucine phosphonic acid [LPA], the Ki was 6.6 µM.
